A word on the IC50: it is the midpoint of a concentration-inhibition curve.

Chains of the proteins cited; added tags and fusions are not shown. Residues count along the entry.
UniProt P01584, 117-269 limits assumed: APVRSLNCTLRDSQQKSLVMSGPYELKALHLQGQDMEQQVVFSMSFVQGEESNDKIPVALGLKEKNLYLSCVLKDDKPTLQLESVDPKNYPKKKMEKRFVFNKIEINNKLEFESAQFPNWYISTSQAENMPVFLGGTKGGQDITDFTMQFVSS

The target of this series is Recombinant human IL-1β (Homo sapiens, UniProt P01584). Kind of series: IL-6 assay in MRC5 cells: inhibition of IL-1β induced IL-6 secretion (AlphaLISA). As to conditions: read-out: MRC5 IC50; inhibition of IL-1β induced IL-6 secretion in MRC5 cells; IL-1β pre-incubated 1 hour with compound. The protocol:
Procedure for IL-6 Assay in MRC5 Cells
The inhibition of IL-1β induced IL-6 secretion was evaluated in MRC5 cells. Recombinant human IL-1β (BioLegend 579404) at 2×EC80 concentration was prepared in seeding medium, EMEM (ATCC 30-2003) with 0.025% BSA (Sigma A9576), 1× penicillin/streptomycin (Gibco 15070-063), 1×NEAA (Gibco 11140-050), 1× GlutaMax (Gibco 35050-061), and 1× sodium pyruvate (Gibco 11360-070). 20 μL of IL-1β was added to a 384-well collagen-coated plate (Corning 354664) and pre-incubated at ambient temperature for 1 hour with 200 nL of compound dispensed using an ECHO 555 liquid handler. Human lung fibroblast MRC5 cells (ATCC CCL-171) were added at a density of 3000 cells/20 μL per well. […] The AlphaLISA plate was read on an EnVision multimode plate reader (Perkin Elmer model 2104) using the AlphaScreen setting (laser exc at 680 nm and emis at 570 nm). Dose response curves and IC50 values were analyzed using a 4-parameter logistic equation in Spotfire software (Tibco, Palo Alto, CA).
On the technique in general: In Alpha technology, singlet oxygen from a donor bead excites a nearby acceptor bead.

As to `CC(=O)NCCOc1ccc(C[C@@H]2NC(=O)[C@H](CCc3ccc(O)cc3)NC(=O)C(C)(C)NC(=O)[C@H](CC(C)C)NC(=O)[C@H](Cc3cccc4ccccc34)NC(=O)[C@H](Cc3ccc(-c4ccc(C(=O)O)cc4)cc3)NC(=O)CNC(=O)[C@@H](C)N(C)C(=O)[C@H](CC(=O)O)NC(=O)[C@H]([C@@H](C)c3c[nH]c4cccc(Cl)c34)NC(=O)[C@@H]3C[C@@H](N)CN3C(=O)CNC(=O)[C@H](Cc3ccc(C(=O)O)cc3)NC(=O)[C@H](Cc3c[nH]c4ccccc34)NC2=O)cc1`, the IC50 came to 0.464 nM.
